Reference: ChEMBL document CHEMBL4321832 (J Med Chem, 2019)

Key:
Homo sapiens [1] = organism: Homo sapiens; test: Inhibition of human CYP51 T314I mutant expressed in Escherichia coli at inhibitor/enzyme ratio 50/1 incubated for 1 hr using [3H] lanosterol as substrate by HPLC analysis
Homo sapiens [2] = organism: Homo sapiens; test: Binding affinity to human CYP51 T314I mutant expressed in Escherichia coli assessed as decrease in demethylation incubated for 1 min

| Structure (SMILES) | inhibition (Homo sapiens [1]) | Activity (Homo sapiens [2]) |
| --- | --- | --- |
| O=C(N[C@@H](Cn1ccnc1)c1ccc(Cl)cc1Cl)c1ccc(-c2nnc(-c3cc(F)cc(-c4ncncc4F)c3)o2)cc1 | Active | – |
| O=C(N[C@@H](Cn1ccnc1)c1ccc(Cl)cc1Cl)c1ccc(-c2nnc(-c3ccc(F)c(F)c3)o2)cc1 | Active | – |
| C=C(CC[C@@H](C)[C@H]1CC[C@@]2(C)C3=C(CC[C@]12C)[C@@]1(C)CC[C@H](O)[C@@H](C)[C@@H]1CC3)C(C)C | – | Active |
| C=C(CC[C@@H](C)[C@H]1CC[C@@]2(C)C3=C(CC[C@]12C)[C@@]1(C)CC[C@H](O)C(C)(C)[C@@H]1CC3)C(C)C | – | Active |
| O=C(N[C@@H](Cn1ccnc1)c1ccc(Cl)cc1Cl)c1ccc(-c2nnc(-c3cc(F)cc(-c4ccccn4)c3)o2)cc1 | Active | – |
| O=C(N[C@@H](Cn1ccnc1)c1ccc(Cl)cc1Cl)c1ccc(-c2nnc(-c3cc(-c4ccccn4)ccc3F)o2)cc1 | Active | – |
| O=C(N[C@@H](Cn1ccnc1)c1ccc(Cl)cc1Cl)c1ccc(-c2nnc(-c3cccc(N4CCOCC4)c3)o2)cc1 | Active | – |
| O=C(N[C@@H](Cn1ccnc1)c1ccc(Cl)cc1Cl)c1ccc(-c2nnc(-c3cc(F)cc(OCC(F)(F)F)c3)o2)cc1 | Active | – |
| CC(C)=CCC[C@@H](C)[C@H]1CC[C@@]2(C)C3=C(CC[C@]12C)[C@@]1(C)CC[C@H](O)C(C)(C)[C@@H]1CC3 | – | Active |

Active and inactive are the calls of the source. The rule behind the calls is not given here.
